One molecule from patent publication US20230064189A1, “1H-PYRAZOLO[3,4-D]PYRIMIDINE COMPOUNDS USEFUL FOR THE TREATMENT OF PLATINUM-RESISTANT CANCER” (IMPERIAL COLLEGE INNOVATIONS LIMITED, priority 2019, published 2023) can be followed below.

The test system of the assay is SKOV3 cells. In words: Phenotypic apoptosis assay (caspase 3/7 normalised to MTT) plus/minus cisplatin in SKOV3. The assay is classed as cell-based. The settings on record: inhibitor 6.67 μM + cisplatin 25 μM.

As for `COc1ccc(O)c(C(=O)c2ccc(C(=O)N[C@@H]3CCCNC[C@H]3NC(=O)c3ccncc3)cc2)c1F` [Roche comp-4, N-{(3R,4R)-4-[4-(2-fluoro-6-hydroxy-3-methoxy-benzoyl)-benzoylamino]-azepan-3-yl}-isonicotinamide, reference compound], the “activity in phenotypic in vitro apoptosis platinum re-sensitisation assays” value is “inactive”.
